ChEMBL document CHEMBL4304752, “Synthesis and Molecular Properties of Nerve Agent Reactivator HLö-7 Dimethanesulfonate” (2019)

What was measured:
[1] = Solubility of compound in water; settings: buffer
[2] = Half life at physiological pH and temperature

Structure (SMILES): NC(=O)c1cc[n+](COC[n+]2ccc(/C=N/O)cc2/C=N/O)cc1.[I-].[I-]
- solubility [1]: 20 mg/mL
- t1/2 [2]: 12 h
